The values that follow are results of earlier work, collected in US20220288273A1, “OSTEOINDUCTIVE MODIFIED GELATIN HYDROGELS AND METHODS OF MAKING AND USING THE SAME” (THE REGENTS OF THE UNIVERSITY OF CALIFORNIA, priority 2019, published 2022).

For the data set the following is noted: in vivo.

B1: rhBMP2: human recombinant bone morphogenetic protein 2 (protein, UniProt P12643 283-396, looked up)
Bone morphogenetic protein 2: QAKHKQRKRLKSSCKRHPLYVDFSDVGWNDWIVAPPGYHAFYCHGECPFPLADHLNSTNHAIVQTLVNSVNSKIPKACCVPTELSAISMLYLDENEKVVLKNYQDMVVEGCGCR
For B1, the “efficacy of peri-implant bone regeneration” value is given as 30-40%.
